# This is a selection; strong and weak results do not stand in their true shares. The source made the active and inactive calls.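 The calls were made as follows: active = compounds whose percent inhibition of the receptor-coactivator binding signal exceeds about 50% in the single-dose screen (limit read from the data); inactive = the rest.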
# Amino acid sequences for entries named in this document (tags omitted).
# UniProt Q92731, whole entry: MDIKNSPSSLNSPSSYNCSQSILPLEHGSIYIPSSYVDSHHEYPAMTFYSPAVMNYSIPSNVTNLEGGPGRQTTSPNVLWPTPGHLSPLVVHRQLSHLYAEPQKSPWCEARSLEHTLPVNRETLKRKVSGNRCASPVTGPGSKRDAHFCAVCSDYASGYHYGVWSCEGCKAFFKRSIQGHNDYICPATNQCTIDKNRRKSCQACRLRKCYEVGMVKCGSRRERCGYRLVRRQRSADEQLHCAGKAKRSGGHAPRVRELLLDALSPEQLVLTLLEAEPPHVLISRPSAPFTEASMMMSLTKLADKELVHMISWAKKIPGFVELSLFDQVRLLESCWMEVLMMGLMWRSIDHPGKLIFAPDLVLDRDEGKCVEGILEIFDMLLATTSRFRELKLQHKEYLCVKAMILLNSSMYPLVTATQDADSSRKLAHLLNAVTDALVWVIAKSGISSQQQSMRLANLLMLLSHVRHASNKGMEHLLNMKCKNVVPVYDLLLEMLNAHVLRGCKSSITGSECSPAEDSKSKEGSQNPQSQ
# Biological target: Estrogen receptor beta (Homo sapiens) (UniProt Q92731)
# Test: blockers of coactivator peptide binding to ERβ – biochemical, TR-FRET, ERβ LBD, SRC-1 peptide, primary screen (AID 633);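 also: 0% = receptor plus peptide wells without compound and 100% = peptide-only wells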
# Details: TR-FRET ER-beta LBD / SRC1-Cy5 peptide binding; at 25.6 µM; stronger effect = higher value
row,Compound,inhibition
1,Fc1ccccc1NC1CCN(Cc2ccccc2)CC1,inactive: 0.19%
2,CCC(CO)(C(=O)OC1CN2CCC1CC2)c1ccccc1 (centres undefined),inactive: -1.42%
3,CCOc1ncccc1C(=O)NCC1(N2CCOCC2)CCCCC1,inactive: 2.45%
4,N/C(=N\O)c1c(N)no[n+]1[O-],inactive: -8.74%
5,c1ccc(CN2CCC(Nc3ccccc3)CC2)cc1,inactive: -1.53%
6,O=C(NCC1(N2CCOCC2)CCCCC1)c1cc(=O)[nH]c2ccccc12,inactive: 6.05%
7,N#CC1(Nc2ccccc2)CCN(CCc2ccccc2)CC1,inactive: -19.1%
8,O=C(NCC1(N2CCOCC2)CCCCC1)c1cc2ccccc2o1,inactive: 3.69%
9,O=C(OC1CN2CCC1CC2)C1c2ccccc2Oc2ccccc21 (centres undefined),inactive: -0.2%

# Source: PubChem BioAssay AID633 (Emory University Molecular Libraries Screening Center, 2007)
